INS-1E GSIS act: GLuc luminescence reporter in INS-1E cells, primary screen for activators of glucose-dependent secretion of insulin | INS-1E GLuc reporter insulin secretion, 2-3 h | activation, % at 16.6 µM | actives 0.61% (n = 370,000) | AID 743287;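 active = lowest replicate activation of at least 40%, so every replicate reaches that level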
Yeast UUG start: modulators of start codon recognition fidelity in yeast. S. cerevisiae UUG-firefly luciferase reporter, luminescence/redox ratio. activity score, % at 18.7 µM. 0.13% of 350,000 active. AID 602363;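 active = replicate mean at a twofold rise or more, about +100% in these data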;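 also: firefly luciferase made from a UUG start codon reports start codon fidelity; reporter light over untreated wells divided by growth signal over untreated wells; some hits fall short of that in this replicate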
ERp5 block: inhibitors of human ERp5 | Q15084 | ERp5 insulin aggregation, absorbance 650 nm, 90 min | inhibition, % at 9.99 µM | actives 0.05% (n = 350,000);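 active = mean replicate inhibition above about 25%, with every replicate also reaching it, limit read from the data, passing the limit was not always enough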
SMARCA2 act: SMARCA2 function activation, primary screen. MG213 cells, MMTV-luciferase reporter, dexamethasone, overnight. activation, % at 9.1 µM. actives 1% (n = 370,000); in the data active = activation above about 7.8%
NR1D1 modulator: modulators of human Rev-erb alpha DNA binding; activity, % at 10 µM; actives 0.79% (n = 370,000); Rev-erbα–FITC-DNA binding, fluorescence polarization, 90 min; AID 1259318;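 active = activity above about 14%, limit read from the data; passing the limit was not always enough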
PDI inh: inhibitors of human protein disulfide isomerase; PDI insulin aggregation turbidity, A650, 90 min; inhibition, % at 10 µM; actives 0.052% (n = 350,000); AID 588391;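 active = mean inhibition across replicates of 30% or more, whatever share of single replicates reach that level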
Rev-erbA confirm: confirmation of modulators of human Rev-erb alpha DNA binding; shares compounds with NR1D1 modulator; Rev-erb alpha FITC-DNA binding, fluorescence polarization, 90 min; activation, % at 25 µM; actives 61% (n = 3,000);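 active = activation at or above a set limit, or at least 3 SD above the negative control mean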
RORg counter: counter-screen for Rev-erb alpha modulators: RORgamma DNA binding | shares compounds with NR1D1 modulator | purified RORgamma protein-FITC-DNA binding, fluorescence polarization | IC50, µM | actives 8% (n = 910) | AID 1259320;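 active = Compounds whose fitted half-maximal concentration for disrupting protein-DNA binding is below 10 micromolar; the record names Rev-erb in its text, so the target is in doubt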
Of the large screens only hits and unclear results are named; the others gave an inactive call (follow-up assays come after a bar, where they were run). Rows were chosen to be rich in hits. Some 2.1% of all compounds tested hit in one or more screens of this group.

CC(=O)Nc1sc(C)c(C)c1C(=O)OCC(=O)NCc1ccc(Cl)cc1	NR1D1 modulator 24 | Rev-erbA confirm inactive
CCn1cc(C(=O)NCCc2ccc(C)cc2)c(=O)c2cc(S(=O)(=O)N(C)C)ccc21	none (no result: INS-1E GSIS act, Yeast UUG start, PDI inh)
CCn1cc(C(=O)NCCc2ccc(Cl)cc2)c(=O)c2cc(S(=O)(=O)N(C)C)ccc21	NR1D1 modulator 44 | Rev-erbA confirm 27
C[C@@H]1CN([C@@H](C)CO)C(=O)c2cc(NC(=O)c3ccncc3)ccc2O[C@@H](C)CCCCO[C@H]1CN(C)S(C)(=O)=O	none (no result: ERp5 block, SMARCA2 act, NR1D1 modulator, PDI inh)
COCCCNc1nc2c(-c3ccc(C)cc3)nnn2c2ccccc12	NR1D1 modulator 65 | Rev-erbA confirm 35 | RORg counter inactive
COc1cccc(NC(=O)Nc2ccc3c(c2)OC[C@@H](C)NC[C@H](C)[C@@H](OC)CN(C)C3=O)c1	none (no result: SMARCA2 act, NR1D1 modulator, PDI inh)
COc1ccc(CC(=O)OCc2cc3ccccc3[nH]c2=O)cc1	none (no result: INS-1E GSIS act, ERp5 block)
COc1ccc(CC(=O)OCc2cc3ccc(C)cc3[nH]c2=O)cc1	NR1D1 modulator 34 (no result: INS-1E GSIS act, ERp5 block) | Rev-erbA confirm 31
COc1cc(OC)cc(C(=O)OCc2cc3ccccc3[nH]c2=O)c1	NR1D1 modulator 57 (no result: INS-1E GSIS act, ERp5 block) | Rev-erbA confirm 50 | RORg counter inactive
O=C(OCc1cc2ccccc2[nH]c1=O)c1ccccn1	none (no result: INS-1E GSIS act, ERp5 block)
Cc1ccc2[nH]c(=O)c(CN(C(=O)c3cccs3)c3ccccc3)cc2c1	NR1D1 modulator 52 | Rev-erbA confirm 96 | RORg counter inactive
Cc1ccc2cc(CN(C(=O)c3cccs3)c3ccccc3)c(=O)[nH]c2c1	none
O=C(OCc1cc2ccccc2[nH]c1=O)c1cccs1	NR1D1 modulator 27 | Rev-erbA confirm 24
C[C@H]1CN([C@@H](C)CO)C(=O)c2cccc(NC(=O)c3cnccn3)c2O[C@@H]1CN(C)C(=O)Nc1ccc(C(F)(F)F)cc1	none (no result: SMARCA2 act, NR1D1 modulator, PDI inh)
COc1ccc(-c2csc(NC(=O)C3=COCCO3)n2)c(OC)c1	none (no result: Yeast UUG start)
Cc1cc(C)c(-c2csc(NC(=O)C3=COCCO3)n2)cc1C	NR1D1 modulator 19 | Rev-erbA confirm inactive
CCc1nc(SCC(=O)NCCc2ccccc2)c2oc3ccccc3c2n1	NR1D1 modulator 62 | Rev-erbA confirm 69 | RORg counter inactive
Cc1nc(SCC(=O)NCCc2ccccc2)c2oc3ccccc3c2n1	NR1D1 modulator active (no result: INS-1E GSIS act, ERp5 block) | Rev-erbA confirm active | RORg counter inactive
CCc1nc(SCC(=O)NCC2CCCO2)c2oc3ccccc3c2n1 (stereo not drawn)	none (no result: ERp5 block)
CN1c2ccc(C#Cc3cccnc3)cc2[C@H]2[C@H](CCN2C(=O)C2CCOCC2)[C@@H]1CO	none (no result: SMARCA2 act, NR1D1 modulator, PDI inh)
Cc1ccc(C)c(OCc2nnc(NC(=O)c3ccc4c(c3)OCO4)s2)c1	NR1D1 modulator 30 (no result: Yeast UUG start) | Rev-erbA confirm inactive
COc1ccccc1-c1nnc(NC(=O)c2ccc3c(c2)OCO3)s1	NR1D1 modulator 55 (no result: Yeast UUG start) | Rev-erbA confirm inactive
COc1cc(C(=O)Nc2nnc(-c3sccc3C)s2)cc(OC)c1OC	NR1D1 modulator 93 (no result: INS-1E GSIS act, ERp5 block) | Rev-erbA confirm 117 | RORg counter inactive
CCSc1nnc(NC(=O)c2ccc3c(c2)OCO3)s1	none (no result: ERp5 block)
COc1cccc(C(=O)Nc2nnc(-c3ccc(OC)cc3OC)s2)c1	NR1D1 modulator 32 | Rev-erbA confirm inactive
COc1ccccc1-c1nnc(NC(C)=O)s1	none (no result: INS-1E GSIS act, ERp5 block)
COc1cccc(C(=O)Nc2nnc(-c3ccccc3)s2)c1	none
COc1ccc2c3c(n(C)c2c1)[C@H](CO)N(C(=O)CC1CC1)CC31CCN(C(=O)C2CC2)CC1	none (no result: Yeast UUG start, SMARCA2 act, NR1D1 modulator, PDI inh)
COc1ccc(NC(=O)N(C)C[C@@H]2Oc3ccc(NS(=O)(=O)c4ccccc4)cc3CC(=O)N([C@@H](C)CO)C[C@H]2C)cc1	none (no result: Yeast UUG start, SMARCA2 act, NR1D1 modulator, PDI inh)
COc1ccc2c3c(n(C)c2c1)[C@H](CO)N(C(=O)Nc1ccc(F)cc1)CC31CCN(C(=O)Nc2ccc(F)cc2F)CC1	none (no result: Yeast UUG start, ERp5 block, SMARCA2 act, NR1D1 modulator, PDI inh)
CO[C@@H]1CN(C)C(=O)c2cc(NS(=O)(=O)c3ccc(F)cc3)ccc2OC[C@@H](C)NC[C@@H]1C	none (no result: SMARCA2 act, NR1D1 modulator, PDI inh)
COc1ccc2cc(C3CC(c4cccs4)=NN3C(C)=O)c(Cl)nc2c1 (stereo not drawn)	NR1D1 modulator 41 (no result: Yeast UUG start) | Rev-erbA confirm 32 | RORg counter inactive
Cc1ccc2nc(Cl)c(C3CC(c4cccs4)=NN3C(=O)CCC(=O)O)cc2c1 (stereo not drawn)	none (no result: Yeast UUG start)
O=C(C[C@@H]1CC[C@@H](NC(=O)CN2CCOCC2)[C@@H](CO)O1)NCCc1ccccc1	none (no result: SMARCA2 act, NR1D1 modulator, PDI inh)
COc1ccc2c3c(n(C)c2c1)[C@H](CO)N(Cc1ccncc1)CC31CCN(C(=O)NC(C)C)CC1	none (no result: Yeast UUG start, SMARCA2 act, NR1D1 modulator, PDI inh)
CC(C)Cc1ccc(-c2cc3nc(NCCc4ccc(S(N)(=O)=O)cc4)ccn3n2)cc1	NR1D1 modulator 35 | Rev-erbA confirm 24
COc1ccc(OC)c(Nc2ncnc3ccc(Br)cc23)c1	NR1D1 modulator 59 | Rev-erbA confirm 29
CCOC(=O)c1c(NC(=O)CSc2nc3ccccc3c(=O)n2-c2ccccc2)sc(C(C)=O)c1C	NR1D1 modulator 140 (no result: Yeast UUG start) | Rev-erbA confirm inactive
CCc1nnc(NC(=O)CSc2nc3cc4c(cc3cc2C)OCCO4)s1	NR1D1 modulator 47 (no result: INS-1E GSIS act, ERp5 block) | Rev-erbA confirm 47 | RORg counter inactive
N#Cc1cc2c(nc1SCC(=O)O)CCCCC2	none (no result: Yeast UUG start)
Cc1ccc2sc(NC(=O)CSc3nc(C)cc(C)c3C#N)nc2c1	NR1D1 modulator 29 (no result: INS-1E GSIS act, ERp5 block) | Rev-erbA confirm inactive
CCc1nnc(NC(=O)CSc2nc3c(cc2C#N)CCCC3)s1	NR1D1 modulator 34 (no result: INS-1E GSIS act, ERp5 block) | Rev-erbA confirm 23
COc1ccc(CNC(=O)C[C@H]2CC[C@H](NC(=O)Nc3ccc4c(c3)OCO4)[C@@H](CO)O2)cc1	none (no result: SMARCA2 act, NR1D1 modulator, PDI inh)
COc1ccccc1NC(=O)N[C@@H]1CC[C@H](CCn2cc(-c3ccccc3OC)nn2)O[C@@H]1CO	none (no result: SMARCA2 act, NR1D1 modulator, PDI inh)
CCOC(=O)c1c(NC(=O)CSc2nc(C)cc(C)c2C#N)sc(C(C)=O)c1C	NR1D1 modulator 35 (no result: INS-1E GSIS act, ERp5 block) | Rev-erbA confirm 17
CCOC(=O)c1sc(NC(=O)CSc2nc(C)cc(C)n2)c(C#N)c1C	none (no result: INS-1E GSIS act, ERp5 block)
CCOC(=O)c1sc(NC(=O)CSc2nc3c(cc2C#N)CCCCC3)c(C#N)c1C	NR1D1 modulator 30 (no result: INS-1E GSIS act, ERp5 block) | Rev-erbA confirm 20
CCN1[C@H](C(=O)NCCc2cn(C)cn2)[C@@H](CO)[C@@H]2Cn3c(ccc(-c4ccncc4)c3=O)[C@@H]21	none (no result: Yeast UUG start, SMARCA2 act, NR1D1 modulator, PDI inh)
O=C(N[C@@H]1CC[C@@H](CCNC(=O)C2CCCC2)O[C@@H]1CO)c1ccccn1	none (no result: SMARCA2 act, NR1D1 modulator, PDI inh)
OCC1OC(Oc2cccc3ccccc23)C(O)C(O)C1O (stereo not drawn)	NR1D1 modulator 26 | Rev-erbA confirm inactive
OC[C@H]1O[C@@H](Oc2ccc(O)cc2)[C@H](O)[C@@H](O)[C@@H]1O	none
